Experimental data taken from patent publication US20030148462A1, “Dual inhibition of sister chromatid separation at metaphase” (President and fellows of Harvard College, priority 2001, published 2003).

By UniProt entry, the sequences of proteins in these tests, tags left out. Where a name states a change or a piece, a line headed by the entry shows the natural chain unless it says otherwise.
UniProt Q14674: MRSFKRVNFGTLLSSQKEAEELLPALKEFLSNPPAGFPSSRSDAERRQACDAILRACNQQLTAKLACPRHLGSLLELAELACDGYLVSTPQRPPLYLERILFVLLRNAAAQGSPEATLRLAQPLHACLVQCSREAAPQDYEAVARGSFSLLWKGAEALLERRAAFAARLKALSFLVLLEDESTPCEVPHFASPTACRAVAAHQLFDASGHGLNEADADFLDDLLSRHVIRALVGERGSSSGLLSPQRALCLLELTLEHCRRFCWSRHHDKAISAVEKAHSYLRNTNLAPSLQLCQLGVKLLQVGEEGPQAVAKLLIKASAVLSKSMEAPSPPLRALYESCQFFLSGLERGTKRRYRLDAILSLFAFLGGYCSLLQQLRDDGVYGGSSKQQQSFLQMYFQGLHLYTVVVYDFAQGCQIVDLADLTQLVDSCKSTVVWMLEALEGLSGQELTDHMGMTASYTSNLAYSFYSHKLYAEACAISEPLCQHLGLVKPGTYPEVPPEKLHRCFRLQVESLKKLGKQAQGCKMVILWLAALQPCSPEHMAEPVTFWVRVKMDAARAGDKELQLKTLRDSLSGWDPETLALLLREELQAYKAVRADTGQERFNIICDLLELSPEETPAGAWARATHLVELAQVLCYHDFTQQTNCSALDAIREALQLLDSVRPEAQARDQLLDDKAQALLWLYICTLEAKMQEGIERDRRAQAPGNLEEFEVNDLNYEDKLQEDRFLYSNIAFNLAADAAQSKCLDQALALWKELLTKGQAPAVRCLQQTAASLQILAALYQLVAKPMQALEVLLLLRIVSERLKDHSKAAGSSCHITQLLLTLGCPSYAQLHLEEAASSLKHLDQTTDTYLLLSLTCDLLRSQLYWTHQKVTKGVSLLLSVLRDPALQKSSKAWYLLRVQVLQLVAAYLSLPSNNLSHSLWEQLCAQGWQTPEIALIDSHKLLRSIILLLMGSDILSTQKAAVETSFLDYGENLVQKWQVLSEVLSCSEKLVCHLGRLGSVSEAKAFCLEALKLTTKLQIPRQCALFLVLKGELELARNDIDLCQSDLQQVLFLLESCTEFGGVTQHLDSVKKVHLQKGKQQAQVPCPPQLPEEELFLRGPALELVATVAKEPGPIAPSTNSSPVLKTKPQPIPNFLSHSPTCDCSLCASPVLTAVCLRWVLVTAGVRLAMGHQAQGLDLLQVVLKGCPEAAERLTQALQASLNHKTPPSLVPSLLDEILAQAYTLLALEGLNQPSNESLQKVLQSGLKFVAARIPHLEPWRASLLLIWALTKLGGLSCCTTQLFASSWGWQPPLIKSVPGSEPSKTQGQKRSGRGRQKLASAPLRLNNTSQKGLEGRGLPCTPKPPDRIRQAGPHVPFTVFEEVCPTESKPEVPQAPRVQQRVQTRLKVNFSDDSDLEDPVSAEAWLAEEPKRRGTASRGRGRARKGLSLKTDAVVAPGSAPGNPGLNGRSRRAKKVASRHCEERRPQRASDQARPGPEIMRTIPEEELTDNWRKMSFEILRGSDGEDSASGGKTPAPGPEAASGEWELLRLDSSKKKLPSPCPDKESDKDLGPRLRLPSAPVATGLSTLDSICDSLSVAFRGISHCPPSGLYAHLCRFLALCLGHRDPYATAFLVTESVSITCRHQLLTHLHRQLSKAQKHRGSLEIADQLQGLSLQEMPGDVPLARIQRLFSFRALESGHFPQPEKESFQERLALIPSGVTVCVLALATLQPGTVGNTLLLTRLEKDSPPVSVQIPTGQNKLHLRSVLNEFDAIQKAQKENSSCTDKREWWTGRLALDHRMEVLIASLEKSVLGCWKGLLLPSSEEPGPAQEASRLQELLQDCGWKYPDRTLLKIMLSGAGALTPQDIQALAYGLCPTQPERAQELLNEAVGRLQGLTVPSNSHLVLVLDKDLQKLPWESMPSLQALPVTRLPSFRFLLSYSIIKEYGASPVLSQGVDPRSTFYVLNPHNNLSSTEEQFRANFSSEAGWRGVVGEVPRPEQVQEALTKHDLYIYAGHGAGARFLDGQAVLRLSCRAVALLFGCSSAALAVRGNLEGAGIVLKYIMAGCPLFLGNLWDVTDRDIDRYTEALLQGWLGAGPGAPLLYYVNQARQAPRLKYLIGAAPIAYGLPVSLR

Biological target: T1, separase Ser1126 (Homo sapiens, UniProt Q14674)
T1 construct: Full-length human separase was PCR-amplified from a human fetal thymus cDNA library; made in house; host or cells: 293T cells (cotransfected, unsynchronized)
Test: Ser1126-specific in vitro kinase assays with LC-MS/MS
Type: biochemical
Conditions: 1 mM ATP
Description: FIGS. 6A-6E illustrate that the inhibitory phosphorylation of separase is high in metaphase and declines upon anaphase onset. (A) depicts FACS and Western analyses of synchronized HeLaS3 cells undergoing mitosis. (B) depicts quantification of cell cycle distribution and phosphorylation status of separase at Ser1126 for the samples shown in (A). (C) depicts a nano-scale microcapillary LC-MS/MS analysis of native separase phosphorylation state. Shown are the selected reaction, extracted-ion chromatograms corresponding to the unphosphorylated (upper trace) and phosphorylated (bottom trace) Glu1115-Lys1130 native tryptic peptide (blue and green) and heavy internal standard (brown and red). […] Shown is the phosphorylation status of Ser1126 in percent as determined by incubation of affinity-purified securin/separase with various pure kinases in the presence of ATP (1 mM) followed by LC-MS/MS analysis. […]
Quantitative mass spectrometry was also used with isotopically labeled peptides to determine which kinase was able to phosphorylate separase in vitro at its inhibitory site. […]
Coomassie stained securin and separase bands were digested in-gel (Shevchenko et al. (1996) Anal. Chem. 68:850). […] Eluting peptides were ionized by electrospray ionization and analyzed by an LCQ-DECA ion trap mass spectrometer (ThermoFinnigan). […]

- Separase phosphorylated at Ser1126 (pure kinase, LC-MS/MS): 88%
- Phosphorylation of Ser1126 by kinase (securin/separase from unsynchronized 293T cells): efficiently phosphorylated
Substance: CDC2/cyclinB1: pure kinase from New England Biolabs
